Source: ChEMBL document CHEMBL4814043, “Optimization of a urea-containing series of nicotinamide phosphoribosyltransferase (NAMPT) activators” (Bioorg Med Chem Lett, 2021)

Protein sequences, listed by entry. Tags and fused reporters are not part of them. Lines headed by an entry give the natural chain unless they say otherwise; changes in a name come on top.
UniProt P43490: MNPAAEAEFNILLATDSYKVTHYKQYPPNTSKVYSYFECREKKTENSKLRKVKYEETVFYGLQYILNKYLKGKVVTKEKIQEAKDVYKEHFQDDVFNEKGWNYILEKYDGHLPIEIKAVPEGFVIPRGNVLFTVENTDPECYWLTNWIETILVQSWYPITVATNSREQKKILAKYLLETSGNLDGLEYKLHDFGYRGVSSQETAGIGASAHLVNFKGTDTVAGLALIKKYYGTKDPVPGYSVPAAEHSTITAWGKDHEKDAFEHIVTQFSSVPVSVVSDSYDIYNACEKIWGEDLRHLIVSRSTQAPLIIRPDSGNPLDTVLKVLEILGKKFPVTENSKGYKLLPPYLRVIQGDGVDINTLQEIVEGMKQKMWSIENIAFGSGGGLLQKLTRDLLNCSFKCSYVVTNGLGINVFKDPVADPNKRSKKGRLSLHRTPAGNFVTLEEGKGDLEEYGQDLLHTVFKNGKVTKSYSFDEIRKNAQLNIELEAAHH

Target: Nicotinamide phosphoribosyltransferase (Homo sapiens, UniProt P43490)
Assay: Activation of human NAMPT

CCOC(=O)c1ccc(NC(=O)NCc2ccncc2)cc1
EC50: 3.25 µM
